Glioma ERSR ind: induces the endoplasmic reticulum stress response in human glioma cells | U87-MG GRP78 promoter luciferase reporter, 16 h | Potency, µM, for inactives: at the top dose activation, usual class: activators | 420,000 compounds, 0.02% hits | AID 602332; also: potency is read from the fitted curve at half-maximal effect; series mostly up to about 76 µM; % of control where 0% means no effect; nearly all actives have a fitted effect of over 35% in size
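ERSR induction read as luciferase luminescence (Bright-Glo, 10 min at room temperature) in stably transfected human U87-MG glioma cells exposed to compounds for 16 h, using GRP78 as sensor.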
miR-21 reporter: raises the signal of a miR-21 reporter; AID 2288; 340,000 tested, under 10 active; Potency, µM (doses to about 38.3 µM), inactives show at the top dose reporter change, positive = more light; HeLa miR-21 FLuc reporter, luciferase, 48 h; active = well fitted rising curve with a large enough effect; inconclusive = small, poorly fitted or top-dose-only effect; inactive = no such curve, though single readings can be large or run the other way;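 note: % of control where 0% means no effect; miR-21 action dims this reporter so a rising signal means less miR-21 action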
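HeLa miR-21-FLuc reporter line, endogenous miR-21; 2000 cells/well in DMEM/10% FBS; compound titration up to ~40uM final, 48 h, 37 degree Celsius; luciferase detection reagent, 15 min lysis, CCD luminescence.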
Nrf2 activator: Nrf2 pathway activation; AREc32 ARE-luciferase reporter (MCF7-derived line), luminescence, 24 h; Potency, µM (titrated, usually from 46.1 µM), for inactives: at the top dose activation, actives largely listed as activators; 410,000 compounds, 0.31% hits; AID 624171; also: potency is read from the fitted curve at half-maximal effect; % of control where 0% means no effect; nearly all actives have a fitted effect of over 65% in size
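AREc32_Fluc, 1000 cells/well, OPTI-MEM + 5% FBS, o/n 37 deg C 5% CO2; 23 nL cpd by pin tool, 24 hr; Steady-Glo 30 min RT, luminescence.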
Mito fusion yeast: inhibitors of mitochondrial division or activators of mitochondrial fusion; S. cerevisiae fusion-defective mutant growth rescue, CellTiterGlo 48 h; Potency, µM (doses to about 46.1 µM), for inactives: at the top dose growth rescue (activation), hits mostly activators; 320,000 compounds, 0.23% hits; also: potency is read from the fitted curve at half-maximal effect; % of control where 0% means no effect; nearly all actives have a fitted effect of over 45% in size
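Luminescent cell viability in 1536-well qHTS format served as the measure of rescued growth in ts fusion-mutant S. cerevisiae cultured on non-fermentable YPEG for 48 hours at 37C.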
A549 viability: counter-screen for Nrf2 inhibitors: cytotoxicity in A549 cells; A549 ARE-Fluc cells, CellTiter-Fluor viability, 18-24 h; Potency, µM (highest dose often 46 µM), for the others: top-dose activity change, negative = cytotoxicity, most hits filed as inhibitors; 390,000 compounds, 0.16% hits; AID 504648; also: potency is read from the fitted curve at half-maximal effect; % is scaled to controls: 0 for no effect and ±100 for the full control effect
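A549 ARE_Fluc cells in 5% FBS OPTI-MEM were exposed to compounds in concentration-response for 18-24 h at 37 deg C. Viability was read by CellTiter-Fluor fluorescence (Ex 405/Em 525) after 30 min, before the luciferase read.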
Nrf2 block: blocks Nrf2 signaling. A549 ARE-Fluc reporter, luciferase luminescence, 18-24 h. Potency, µM (series often up to 46 µM), for inactives: top-dose activity change, negative = inhibition, most hits filed as inhibitors. 360,000 compounds, 2.1% hits. AID 504444; also: potency is read from the fitted curve at half-maximal effect; % is scaled to controls: 0 for no effect and ±100 for the full control effect; nearly all actives have a fitted effect of over 60% in size
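Reporter: ARE-Fluc in A549. Exposure: 18-24 h, 37 °C, 5% CO2, 5% FBS OPTI-MEM. Readouts: fluorescent cytotoxicity (CellTiter-Fluor), then luminescent Nrf2 signal after BugLite.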
The depositor's hits bear a star; u = inconclusive; x = not tested or not shown. Rows were chosen to be rich in hits. Some 2.3% of all compounds tested hit in one or more screens of this group. Calls follow the shape of the dose curve; as a rule, active = well fitted curve in the direction sought with a large enough effect; inconclusive = small, poorly fitted or top-dose-only effect, or another doubt; inactive = no such curve, though single readings can be large; an effect the other way counts as inactive or inconclusive.

SMILES	Glioma ERSR ind	miR-21 reporter	Nrf2 activator	Mito fusion yeast	A549 viability	Nrf2 block
CC/C(=N\NC(=O)c1ccccc1Cl)c1c(O)n(C2CCCCC2)c(=O)[nH]c1=O	0.3%	-4.8%	-0.2%	-2.3%	2.6%	14.1%
CCOC(=O)CNC(=O)N1Cc2cc(-c3ccc(OC)cc3)ccc2-n2nncc2C1	1.3%	x	4.8%	x	x	x
Cn1c(O)c(C=NCc2cccs2)c(=O)n(C)c1=O	-1.8%	7.0%	6.7%	0.8%	4.3%	-3.1%
Cc1ccccc1OCCN=Cc1c(O)n(C)c(=O)n(C)c1=O	0.7%	-10.9%	0.8%	-0.3%	-16.2%	20.6µM*
Cc1ccc(Cn2cccc(C(=O)Nc3cc([N+](=O)[O-])ccc3C)c2=O)cc1	-0.2%	0.0%	3.0%	x	16.6%	x
COP(=O)(OC)c1nc(-c2ccc([N+](=O)[O-])cc2)oc1N1CCCCC1	-6.3%	2.1%	2.2%	8.4%	u	-21.0%
C=CC[C@H](CC(=O)N(CCO)Cc1ccccc1)C(=O)NC[C@H](OC(=O)[C@@H](CC=C)CC(=O)OC(C)(C)C)c1ccccc1	-2.2%	x	-3.7%	x	u	18.4µM*
CC12CNCC(C)(CNC1)C2O (stereo not given)	-2.3%	-0.5%	-1.7%	0.5%	-1.6%	5.0%
Cc1ccccc1C(=O)Nc1sc2c(c1C(=O)O)CCC(C(C)(C)C)C2 (stereo not given)	-2.9%	21.7%	-3.1%	x	-19.0%	3.66µM*
O=C(Nc1sc2c(c1C(=O)Nc1ccc(Cl)cc1)CCCC2)c1cccs1	-1.2%	-0.6%	-0.9%	x	-0.8%	u
N#CC(C#N)=NNc1ccc(-n2ccc(C(F)(F)F)n2)cc1	1.4%	u	-0.1%	-3.3%	u	16.4µM*
CC(C)(C)NC(=O)C1CC2CCCCC2CN1 (stereo not given)	-9.4%	2.0%	-0.4%	3.55µM*	1.1%	1.7%
CCN(CC)C(=O)c1ccc(NC(=O)Cn2nc(-c3ccc(C)cc3)c3ccccc3c2=O)cc1	-1.4%	-0.4%	-0.8%	x	-2.2%	11.6%
CCN(CC)C(=O)c1ccc(NC(=O)CCn2nc(-c3ccc(C)cc3)c3ccccc3c2=O)cc1	-4.7%	23.7%	0.6%	x	-22.1%	18.4µM*
CC1=C2C3OC(=O)C(C)C3CC[C@@]2(C)C=CC1=O (stereo not given in full)	-3.9%	1.6%	0.0%	-2.6%	0.7%	1.0%
O=C1NC(=O)N(c2ccc3c(c2)OCO3)C(=O)/C1=C\c1ccsc1	-1.2%	-5.2%	0.2%	-0.8%	-2.0%	-2.4%
CCOP(=O)(OCC)c1nc(-c2ccc(Cl)cc2)oc1NCc1ccccc1	8.1%	0.3%	7.1%	22.1%	-20.1%	u
CCCOP(=O)(OCCC)c1nc(-c2ccccc2)oc1NCc1ccccc1	-1.5%	-10.2%	6.7%	22.7%	u	18.4µM*
C[C@H]1CCC/C=C/C2C[C@H](O)C[C@H]2[C@H](O)/C=C/C(=O)O1 (stereo not given in full)	11.2%	x	x	x	x	x
C/C=C1\C[N@@+]2(C)CC[C@@]34C(=C(C=O)[C@H]1C[C@H]32)Nc1ccccc14	-3.3%	x	x	x	x	x
COc1ccc(NC(=O)CCn2cnc3onc(-c4ccc(F)cc4)c3c2=O)cc1OC	-5.5%	-1.6%	2.6%	x	-13.8%	23.1µM*
CCOP(=O)(CCP(=O)(OCC)OCC)OCC.C[CH2][Sn]([Cl])([Cl])[CH2]C	-13.9%	x	-1.7%	x	16.4µM*	u
CCOP(=O)(OCC)OCC	-3.5%	x	0.4%	0.9%	1.8%	4.9%
Oc1ccc(-[n+]2c(-c3ccccc3)cc(-c3ccccc3)cc2-c2ccccc2)cc1	-10.1%	x	-2.1%	10.0%	-10.6%	-21.4%
Oc1ccccc1-[n+]1c(-c2ccccc2)cc(-c2ccccc2)c(O)c1-c1ccccc1	1.4%	x	23.0%	11.2µM*	-8.7%	0.1%

Whole records from above. Order of values: Glioma ERSR ind	miR-21 reporter	Nrf2 activator	Mito fusion yeast	A549 viability	Nrf2 block
CC/C(=N\NC(=O)c1ccccc1Cl)c1c(O)n(C2CCCCC2)c(=O)[nH]c1=O is listed with 0.3%	-4.8%	-0.2%	-2.3%	2.6%	14.1%
CCN(CC)C(=O)c1ccc(NC(=O)Cn2nc(-c3ccc(C)cc3)c3ccccc3c2=O)cc1 is listed with -1.4%	-0.4%	-0.8%	x	-2.2%	11.6%

Some of these compounds in order of molecular weight, largest number first:
SMILES	Glioma ERSR ind	miR-21 reporter	Nrf2 activator	Mito fusion yeast	A549 viability	Nrf2 block
Oc1ccccc1-[n+]1c(-c2ccccc2)cc(-c2ccccc2)c(O)c1-c1ccccc1	1.4%	x	23.0%	11.2µM*	-8.7%	0.1%
Cc1ccccc1C(=O)Nc1sc2c(c1C(=O)O)CCC(C(C)(C)C)C2 (stereo not given)	-2.9%	21.7%	-3.1%	x	-19.0%	3.66µM*
O=C1NC(=O)N(c2ccc3c(c2)OCO3)C(=O)/C1=C\c1ccsc1	-1.2%	-5.2%	0.2%	-0.8%	-2.0%	-2.4%

The list goes on:
SMILES	Glioma ERSR ind	miR-21 reporter	Nrf2 activator	Mito fusion yeast	A549 viability	Nrf2 block
CN1CC[C@@]2(CCCN(C(=O)c3ccco3)C2)C1	-3.4%	x	x	x	x	x
CN(C)c1ccc(/C=C/c2cc[n+](C)c3ccccc23)cc1	-10.4%	u	-1.2%	4.9%	16.4µM*	8.2µM*
COC(=O)C1=C(c2ccc(F)cc2OCc2ccccc2)C[C@@H]2CC[C@H]1N2C(=O)NCc1ccc(Br)cc1	-2.2%	x	0.0%	u	-22.1%	14.6µM*
COC(=O)C1=C(c2ccc(F)cc2OCc2ccccc2)C[C@@H]2CC[C@H]1N2C(=O)NCCOc1ccccc1	-3.6%	x	-1.1%	u	-18.6%	u
COC(=O)C1=C(c2ccc(F)cc2OCc2ccccc2)C[C@@H]2CC[C@H]1N2C(=O)NCc1ccc(OC)cc1	-5.1%	x	0.4%	u	-17.5%	u
COC(=O)C1=C(c2ccc(F)cc2OCc2ccccc2)C[C@@H]2CC[C@H]1N2C(=O)NCCOc1ccccc1Cl	-5.8%	x	-0.7%	26.8%	u	u
COC(=O)C1=C(c2ccc(F)cc2OCc2ccccc2)C[C@@H]2CC[C@H]1N2C(=O)NCc1ccccc1Cl	-3.7%	x	0.1%	u	-15.5%	5.17µM*
COC(=O)C1=C(c2ccc(F)cc2OCc2ccccc2)C[C@@H]2CC[C@H]1N2C(=O)NCCc1ccc(F)cc1	-2.9%	x	-1.5%	u	u	18.4µM*
COC(=O)C1=C(c2ccc(F)cc2OCc2ccccc2)C[C@@H]2CC[C@H]1N2C(=O)NCCOc1ccc(OC)cc1	-5.0%	x	-1.6%	20.5%	-11.9%	23.1µM*
CCCc1cc(=O)oc2cc(OCC(=O)N3C[C@H]4C[C@@H](C3)c3cccc(=O)n3C4)ccc12	0.0%	-1.6%	-0.8%	-2.5%	-1.5%	0.0%
O=C(C1CC(=O)N(c2ccc(F)c(Cl)c2)C1)N1CCC2(CC1)OCCO2 (stereo not given)	-0.7%	-3.2%	-0.9%	1.7%	-3.2%	12.5%
CC(C)OC(=O)c1c(N)n(CC2CCCO2)c2nc3ccccc3nc12 (stereo not given)	3.5%	5.8%	0.0%	-10.7%	17.3%	-3.3%
Nc1c(C(=O)OC2CCCCC2)c2nc3ccccc3nc2n1CC1CCCO1 (stereo not given)	-3.4%	-0.2%	-0.1%	16.9%	-19.5%	23.1µM*
Nc1c(C(=O)NCc2ccco2)c2nc3ccccc3nc2n1Cc1ccc(F)cc1	-4.3%	23.3%	17.8µM*	3.4%	-20.8%	-16.4%
Nc1c(C(=O)NCc2ccco2)c2nc3ccccc3nc2n1Cc1ccccc1	-4.1%	23.7%	15.7%	13.2%	u	-6.0%
CCOc1ccc(-c2cc(C)[n+](CCO)c(-c3ccc(OCC)cc3)c2)cc1	-4.6%	u	0.2%	-5.9%	-7.2%	11.6µM*
Cc1cc(-c2ccccc2)cc(-c2ccccc2)[n+]1CCc1ccccc1	-3.7%	x	5.5%	-7.3%	-9.1%	u

Screens (PubChem)
